Measured values reported in patent US20220002435A1 (IMMUNOME, published 2022).

Legend:
[1] = target: T1, human EPN1 expressed by human cell lines (human, UniProt Q9Y6I3 1-576); assay: flow cytometry, HT29 cells (human tumor line)
T1 construct: Endogenous EPN1 of human tumour and normal cell lines, stained on live cells or on fixed and permeabilised cells, or immunoprecipitated; The cell lines were not engineered to express it; also called surface EPN1; huEPN1
T1 sequence: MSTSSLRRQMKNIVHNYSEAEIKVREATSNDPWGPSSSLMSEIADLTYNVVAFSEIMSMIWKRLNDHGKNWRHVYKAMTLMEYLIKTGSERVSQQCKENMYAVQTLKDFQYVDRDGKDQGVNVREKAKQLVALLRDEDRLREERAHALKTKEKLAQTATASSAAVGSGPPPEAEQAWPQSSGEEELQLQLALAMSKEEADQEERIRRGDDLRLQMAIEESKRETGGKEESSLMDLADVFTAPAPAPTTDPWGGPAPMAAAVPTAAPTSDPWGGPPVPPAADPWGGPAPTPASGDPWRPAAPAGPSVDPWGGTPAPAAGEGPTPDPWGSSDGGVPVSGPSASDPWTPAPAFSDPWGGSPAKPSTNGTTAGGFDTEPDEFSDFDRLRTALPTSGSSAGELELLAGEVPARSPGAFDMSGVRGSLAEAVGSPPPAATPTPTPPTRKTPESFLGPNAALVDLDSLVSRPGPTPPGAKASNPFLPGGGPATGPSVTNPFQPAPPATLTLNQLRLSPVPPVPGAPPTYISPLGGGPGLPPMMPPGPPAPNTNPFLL

[2] = target: T1, human EPN1 expressed by human cell lines; assay: flow cytometry, FADU cells (human tumor line)
[3] = target: T2, mouse EPN1 expressed by mouse cell lines (mouse, UniProt Q80VP1 1-575); assay: flow cytometry, EMT6 cells (mouse tumor line)
T2 construct: whole, on cells; also called murine EPN1
T2 sequence (looked up): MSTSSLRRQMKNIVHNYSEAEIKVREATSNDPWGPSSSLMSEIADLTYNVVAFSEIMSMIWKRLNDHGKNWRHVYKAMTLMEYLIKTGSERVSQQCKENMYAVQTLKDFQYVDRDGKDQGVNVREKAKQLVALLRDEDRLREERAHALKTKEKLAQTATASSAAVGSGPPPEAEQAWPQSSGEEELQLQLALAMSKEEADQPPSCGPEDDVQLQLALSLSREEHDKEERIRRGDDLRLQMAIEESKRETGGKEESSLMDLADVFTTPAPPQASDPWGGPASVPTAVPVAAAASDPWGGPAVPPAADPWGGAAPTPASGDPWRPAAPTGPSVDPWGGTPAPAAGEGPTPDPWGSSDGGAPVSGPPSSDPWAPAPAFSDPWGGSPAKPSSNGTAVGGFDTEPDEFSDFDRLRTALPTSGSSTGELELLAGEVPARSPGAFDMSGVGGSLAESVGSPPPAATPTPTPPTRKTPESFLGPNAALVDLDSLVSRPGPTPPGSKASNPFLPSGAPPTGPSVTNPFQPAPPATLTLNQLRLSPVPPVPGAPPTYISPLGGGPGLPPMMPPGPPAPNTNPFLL

[4] = target: T3, recombinant EPN1 (Origene, cat #TP307099) (human, UniProt Q9Y6I3 1-576); assay: SPR, IMM20059 captured at 450 RU on CM5/Protein A, EPN1 in solution, 1:1 model, 25° C., 3rd test
T3 construct: Bought protein; also called Epsin-1; Epsin 1
T3 sequence: T1 sequence
Procedure: The strength of the interaction with recombinant EPN1 was further defined by surface plasmon resonance on a BIAcore2000 at 25° C. in standard running buffer (10 mM HEPES, 150 mM NaCl, 0.005% Tween-20, 0.2 mg/mL BSA, pH 7.4). Protein A surfaces were regenerated between binding cycles with 150 mM phosphoric acid. IMM20059, or an isotype control, were captured on CM5/Protein A sensor surface to generate binding and control surfaces; IMM20059 was captured at approximately 200 and 450 RU, the isotype control was captured to a density of approximately 600 RU. Binding of recombinant EPN1 to each of the three surfaces was tested, in triplicate, using a three-fold dilution series starting with 33.3 nM as the highest concentration. […] Double-subtracted data obtained from the binding measured against the 450 RU IMM20059 surface was fit to a 1:1 binding model.

[5] = target: T1, human EPN1 expressed by human cell lines; assay: flow cytometry on intact Huh7 cells
Source text: Binding of IMM20059 to intact cells was detected with fluorophore-labelled anti-human secondary Abs.
Full-length IgG1 antibody, containing the PR045-2H11 Ab VH and VL domains, was expressed recombinantly by transient transfection into mammalian cell lines, such as Chinese Hampster Ovary (CHO) and human embryonic kidney (HEK), or derivatives of those cell lines, using standard conditions. The recombinant antibody, referred to as IMM20059, was purified from conditioned media by affinity chromatography, buffer exchanged into PBS and analyzed for activity by flow cytometry. […] IMM20059 binds, to varying degrees, to the surfaces of cells included in a panel of human cancer cells, immortalized normal human cell lines, and mouse tumor lines (Table 1).

[6] = target: T1, human EPN1 expressed by human cell lines; assay: flow cytometry, BJ cells (human normal line)
[7] = target: T3, recombinant EPN1 (Origene, cat …); assay: SPR, IMM20059 captured at 2600 RU on CM5/Protein A, EPN1 in solution, 25° C.
Procedure: IMM20059 was captured at four different surface densities (500, 1000, 2600, and 2800 RU) on a CM5/Protein A sensor chip using 10 mM HEPES, pH 7.4, 150 mM NaCl, 0.005% Tween-20, 0.2 mg/mL BSA as a running buffer. EPN1 (Origene Cat #TP307099) or EPN2 (Origene Cat #TP310899) were diluted in running buffer to both 200 nM and 20 nM and analyzed for the ability to bind to the immobilized IMM20059 at 25° C. […] However, as detailed in Table 4, the observed off-rates for binding to EPN1 were dependent upon IMM20059 surface density, with the off-rate on the 500 RU surface being 2.4-times faster than the off-rate measured on the 2800 RU density surface.

[8] = target: T1, human EPN1 expressed by human cell lines; assay: flow cytometry, Calu6 cells (human tumor line)

B1: IMM20059 (antibody, human IgG1, kappa, V domains shown)
VH: EVQLVESGGGLVQPGGSLRLSCAASGFTFSIHSLNWVRQAPGKGLEWVSYISSNSTTIYYADSVKGRFTISRDNAKDSLYLQMNSLRDEDTAVYYCARDYYCTGGTCFFLPDLWGRGALVTVSS
VL: EIVLTQSPATLSLSPGERATLSCRASQNISNFLAWYQHKPGQAPRLLIYDASIRATGIPARFSGSGSGTDFSLTISSLEPEDFAVYFCQQRYNWLTFGGGTKVEIKR
MFI (fold mean fluorescence index above isotype control) [1]: 6 fold
MFI (fold mean fluorescence index above isotype control) [2]: 5 fold
MFI (fold mean fluorescence index above isotype control) [3]: 6 fold
Kd [4]: 0.95 nM
koff [4]: 0.000721 s⁻¹
kon [4]: 760000 M⁻¹ s⁻¹
EC50 [5]: 1.3 µg/mL
MFI (fold mean fluorescence index above isotype control) [6]: 3 fold
Kd [7]: 1.05 nM
koff [7]: 0.000267 s⁻¹
kon [7]: 254000 M⁻¹ s⁻¹
MFI (fold mean fluorescence index above isotype control) [8]: 6 fold
